Results from PubChem BioAssay AID624204 (Sanford-Burnham Center for Chemical Genomics, 2012).
Only a part is listed here, and it is no random draw. The source made the active and inactive calls.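 How the source made its calls: active means inhibition at least 30% at 10 µM, raw YFP signal under a set limit, fluorescence ratio 0.5 to 1.5; inactive means the rest.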

Chains of the proteins cited; added tags and fusions are not shown. Residues count along the entry.
UniProt Q9P0U3, 419-644 limits assumed: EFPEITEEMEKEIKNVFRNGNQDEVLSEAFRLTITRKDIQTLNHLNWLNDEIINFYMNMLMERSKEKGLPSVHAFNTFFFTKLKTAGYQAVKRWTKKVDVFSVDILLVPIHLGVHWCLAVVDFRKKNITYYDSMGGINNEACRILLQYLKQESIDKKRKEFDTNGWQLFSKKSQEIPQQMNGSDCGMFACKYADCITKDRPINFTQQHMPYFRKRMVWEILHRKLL

Each compound was assayed against Sentrin-specific protease 1 (Homo sapiens) (UniProt Q9P0U3) (assay: blockers of SENP1 SUMO protease activity – biochemical, FRET, uHTS, primary screen (AID 624204;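 further: 0% = enzyme with DMSO and 100% = no enzyme wells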)). Settings: recombinant SENP1 catalytic domain, CyPet-SUMO1-YPet FRET cleavage; at 10 µM; hits give high values.
For `COc1cc(C(=O)NCC2(N3CCOCC3)CCCCC2)cc(OC)c1C`, the inhibition was inactive: -0.6%. For `CCCCn1nnnc1C(c1ccccc1)N1CCC(n2c(=O)[nH]c3ccccc32)CC1` (stereo not drawn), the inhibition was inactive: 3.06%. In the case of `O=C(NCC1(N2CCOCC2)CCCCC1)c1cc(Br)ccc1Cl`, the inhibition is reported as inactive: 1.06%. `O=c1[nH]c2ccccc2n1C1CCN(C(c2cccs2)c2nnnn2C2CCCCC2)CC1` (stereo not drawn) was tested, and the inhibition was inactive: -0.401%. With `O=c1[nH]c2ccccc2n1C1CCN(C(c2ccnc3ccccc23)c2nnnn2C2CCCC2)CC1` (stereo not drawn) the inhibition was inactive: 2.06%. For `COc1ccc(C(=O)NCC2(N3CCOCC3)CCCCC2)cc1OC`, the inhibition was inactive: -0.867%. `COc1cccc(C(c2nnnn2C(C)(C)C)N2CCC(n3c(=O)[nH]c4ccccc43)CC2)c1OC` (stereo not drawn) was tested, and the inhibition was inactive: 2.28%. In the case of `CCOC(=O)N1CCC(Nc2ccc(C)cc2)CC1`, the inhibition is reported as inactive: -0.808%. `N/C(=N\O)c1c(N)no[n+]1[O-]` was tested, and the inhibition was inactive: -0.0533%. In the case of `O=c1[nH]c2ccccc2n1C1CCN(C(c2cccs2)c2nnnn2C2CCCC2)CC1` (stereo not drawn), the inhibition is reported as inactive: -0.907%. For `O=C(OC1CN2CCC1CC2)C1c2ccccc2C=Cc2ccccc21` (stereo not drawn), the inhibition was inactive: 0.53%. In the case of `CCCCn1nnnc1C(c1cccc(OC)c1OC)N1CCC(n2c(=O)[nH]c3ccccc32)CC1` (stereo not drawn), the inhibition is reported as inactive: 2.71%. For `N#Cc1ccc(C(=O)NCC2(N3CCCCC3)CCCCC2)cc1`, the inhibition was inactive: -0.0589%. In the case of `CC(C)(C)OC(=O)N1CCC(N(C(=O)c2ccccc2)c2ccc(Cl)cc2)CC1`, the inhibition is reported as inactive: -0.149%. With `CN(C)C1(CNC(=O)c2cccc(C#N)c2)CCCCC1` the inhibition was inactive: 2.56%. In the case of `O=c1[nH]c2ccccc2n1C1CCN(C(c2ccccc2)c2nnnn2C2CCCC2)CC1` (stereo not drawn), the inhibition is reported as inactive: 2.9%. For `CCCN1CCC(Nc2cc(OC)cc(OC)c2)CC1`, the inhibition was inactive: 14.3%. With `Cc1cc(N(CCCl)CCCl)ccc1C=O` the inhibition was inactive: 1.18%. `c1ccc(CN2CCC(Nc3ccccc3)CC2)cc1` was tested, and the inhibition was inactive: -3.19%. With `CC(C)(C)n1nnnc1C(c1cccc2ccccc12)N1CCC(n2c(=O)[nH]c3ccccc32)CC1` (stereo not drawn) the inhibition was inactive: 1.33%. `CCC(c1nnnn1C1CCCCC1)N1CCC(n2c(=O)[nH]c3ccccc32)CC1` (stereo not drawn) was tested, and the inhibition was inactive: 3.28%. For `CC(=O)N(c1ccccc1)C1CCNCC1`, the inhibition was inactive: 2.54%. With `COc1cccc(C(c2nnnn2C2CCCCC2)N2CCC(n3c(=O)[nH]c4ccccc43)CC2)c1OC` (stereo not drawn) the inhibition was inactive: 0.342%. In the case of `O=c1[nH]c2ccccc2n1C1CCN(C(c2ccnc3ccccc23)c2nnnn2C2CCCCC2)CC1` (stereo not drawn), the inhibition is reported as inactive: -1.45%. `COc1cc(OC)cc(C(=O)NCC2(N3CCCCC3)CCCCC2)c1` was tested, and the inhibition was inactive: 0.49%. With `Fc1ccccc1NC1CCN(Cc2ccccc2)CC1` the inhibition was inactive: 1.67%. For `Cc1ccc(C(=O)NCC2(N3CCCCC3)CCCCC2)o1`, the inhibition was inactive: 0.745%. `Cc1ccc(NC2(C#N)CCN(Cc3ccccc3)CC2)cc1` was tested, and the inhibition was inactive: 1.72%. With `CC(C)(C)n1nnnc1C(c1ccnc2ccccc12)N1CCC(n2c(=O)[nH]c3ccccc32)CC1` (stereo not drawn) the inhibition was inactive: 0.941%. `COc1ccc(C(c2nnnn2C2CCCCC2)N2CCC(n3c(=O)[nH]c4ccccc43)CC2)cc1` (stereo not drawn) was tested, and the inhibition was inactive: 4.2%. For `CCN1CCC(Nc2cccc(F)c2)CC1`, the inhibition was inactive: -0.187%. `Cc1ccccc1NC1(C#N)CCN(Cc2ccccc2)CC1` was tested, and the inhibition was inactive: 1.02%. In the case of `Cn1c(=O)[nH]cc(N(CCCl)CCCl)c1=O`, the inhibition is reported as inactive: 0.462%. For `CN(C)c1ccc(C(=O)NCC2(N3CCCCC3)CCCCC2)cc1`, the inhibition was inactive: 1.32%. In the case of `O=C(NCC1(N2CCCCC2)CCCCC1)c1ccco1`, the inhibition is reported as inactive: 0.509%. For `CN1CCC(Nc2ccc(F)c(Cl)c2)CC1`, the inhibition was inactive: 3.6%. In the case of `CCOc1ncccc1C(=O)NCC1(N2CCOCC2)CCCCC1`, the inhibition is reported as inactive: -0.138%. In the case of `NN(c1ccccc1)C1CCN(CCc2ccccc2)CC1`, the inhibition is reported as inactive: 2.03%. `O=C(O)C1(Nc2ccccc2)CCN(Cc2ccccc2)CC1` was tested, and the inhibition was inactive: -13.6%. For `CC(C)(C)OC(=O)N1CCC(Nc2ccccc2)CC1`, the inhibition was inactive: -0.677%. For `CCCOc1ccc(C(=O)NCC2(N(C)C)CCCCC2)cc1`, the inhibition was inactive: -0.544%. With `O=c1[nH]c2ccccc2n1C1CCN(C(c2cc3ccccc3o2)c2nnnn2C2CCCC2)CC1` (stereo not drawn) the inhibition was inactive: 0.789%. `COc1cccc(C(=O)N(c2cc(C)cc(C)c2)C2CCN(C(=O)OC(C)(C)C)CC2)c1` was tested, and the inhibition was inactive: 3.12%. With `COc1cccc(C(c2nnnn2C2CCCC2)N2CCC(n3c(=O)[nH]c4ccccc43)CC2)c1OC` (stereo not drawn) the inhibition was inactive: -1.82%. For `COc1cc(OC)cc(C(=O)NCC2(N3CCOCC3)CCCCC2)c1`, the inhibition was inactive: 3.48%. With `CCC(CO)(C(=O)OC1CN2CCC1CC2)c1ccccc1` (stereo not drawn) the inhibition was inactive: 3.55%. `CN1CCC(Nc2ccc(Cl)cc2)CC1` was tested, and the inhibition was inactive: 1.61%. `CCC(c1nnnn1C1CCCC1)N1CCC(n2c(=O)[nH]c3ccccc32)CC1` (stereo not drawn) was tested, and the inhibition was inactive: -0.913%. For `COc1ccc(C(=O)NCC2(N3CCCCC3)CCCCC2)c(OC)c1OC`, the inhibition was inactive: -0.0193%. For `CC(C)(C)OC(=O)N1CCC(N(C(=O)c2ccccc2)c2ccc(F)cc2)CC1`, the inhibition was inactive: 3.42%. For `COc1ccc(C(=O)NCC2(N3CCCCC3)CCCCC2)cc1`, the inhibition was inactive: -19.9%. In the case of `CCCCn1nnnc1C(c1cccs1)N1CCC(n2c(=O)[nH]c3ccccc32)CC1` (stereo not drawn), the inhibition is reported as inactive: -0.262%. For `CCCCn1nnnc1C(CC)N1CCC(n2c(=O)[nH]c3ccccc32)CC1` (stereo not drawn), the inhibition was inactive: 2.81%. For `O=C(NCC1(N2CCCCC2)CCCCC1)c1cccs1`, the inhibition was inactive: -18.9%. `O=C(NCC1(N2CCCCC2)CCCCC1)c1ccc(=O)[nH]c1` was tested, and the inhibition was inactive: 2.32%. For `Cc1cccc(NC2(C#N)CCN(Cc3ccccc3)CC2)c1`, the inhibition was inactive: -2.53%. `CSc1ccccc1C(=O)NCC1(N2CCCCC2)CCCCC1` was tested, and the inhibition was inactive: -27.4%. With `Cc1cc(C)cc(N(C(=O)c2ccccc2)C2CCN(C(=O)OC(C)(C)C)CC2)c1` the inhibition was inactive: 2.53%. In the case of `O=c1[nH]c2ccccc2n1C1CCN(C(c2ccccc2OC(F)(F)F)c2nnnn2C2CCCCC2)CC1` (stereo not drawn), the inhibition is reported as inactive: 1.15%. In the case of `O=C(NCC1(N2CCCCC2)CCCCC1)c1ccc(Cl)nc1`, the inhibition is reported as inactive: -9.17%. In the case of `O=C(NCC1(N2CCOCC2)CCCCC1)c1cc2ccccc2o1`, the inhibition is reported as inactive: -7.06%. For `COc1ccc(Cl)cc1C(=O)NCC1(N2CCOCC2)CCCCC1`, the inhibition was inactive: 2.02%. For `O=c1[nH]c2ccccc2n1C1CCN(C(c2cc3ccccc3o2)c2nnnn2C2CCCCC2)CC1` (stereo not drawn), the inhibition was inactive: 0.677%. In the case of `O=C(OC1CN2CCC1CC2)C1c2ccccc2Oc2ccccc21` (stereo not drawn), the inhibition is reported as inactive: 3.1%. For `N#CC1(Nc2ccccc2)CCN(Cc2ccccc2)CC1`, the inhibition was inactive: -0.745%. `O=C(NCC1(N2CCCCC2)CCCCC1)c1ccc(Cl)s1` was tested, and the inhibition was inactive: -5.17%. In the case of `CCCCn1nnnc1C(c1ccc(OC)cc1)N1CCC(n2c(=O)[nH]c3ccccc32)CC1` (stereo not drawn), the inhibition is reported as inactive: 2.5%. With `CCOC(=O)N1CCC(Nc2ccc(OC)cc2)CC1` the inhibition was inactive: -1%. With `O=C1CCN(Cc2ccccc2)CC1` the inhibition was inactive: -28.1%. With `CC(C)(C)n1nnnc1C(c1ccccc1)N1CCC(n2c(=O)[nH]c3ccccc32)CC1` (stereo not drawn) the inhibition was inactive: 0.205%. In the case of `CCOc1ccc(C)cc1CN(CCCl)CCCl`, the inhibition is reported as inactive: 2.63%. In the case of `CCOC(=O)N1CCC(Nc2ccc(F)cc2)CC1`, the inhibition is reported as inactive: 0.32%. With `COc1ccc(NC2CCN(CCc3ccccc3)CC2)c(OC)c1` the inhibition was inactive: 1.76%. In the case of `O=C(NCC1(N2CCCCC2)CCCCC1)c1ccc(F)cc1`, the inhibition is reported as inactive: 1.31%. With `CCCCOc1ccc(C(=O)NCC2(N3CCOCC3)CCCCC2)cc1` the inhibition was inactive: 0.236%. In the case of `O=P1(N(CCCl)CCCl)SCCCS1`, the inhibition is reported as inactive: 5.22%. For `CCCCn1nnnc1C(c1cc2ccccc2o1)N1CCC(n2c(=O)[nH]c3ccccc32)CC1` (stereo not drawn), the inhibition was inactive: -0.414%. In the case of `O=c1[nH]c2ccccc2n1C1CCN(C(c2ccccc2)c2nnnn2C2CCCCC2)CC1` (stereo not drawn), the inhibition is reported as inactive: 3.31%. `COc1cc(C(=O)NCC2(N(C)C)CCCCC2)ccc1OC(F)F` was tested, and the inhibition was inactive: 5.04%. `CCOC(=O)N1CCC(Nc2cccc(C)c2)CC1` was tested, and the inhibition was inactive: 1.26%. With `O=c1[nH]c2ccccc2n1C1CCN(C(c2cccc3ccccc23)c2nnnn2C2CCCC2)CC1` (stereo not drawn) the inhibition was inactive: 1.06%. In the case of `O=C(NCC1(N2CCCCC2)CCCCC1)c1ccc(OC(F)F)cc1`, the inhibition is reported as inactive: -33.2%. For `CC(C)(C)n1nnnc1C(c1ccccc1OC(F)(F)F)N1CCC(n2c(=O)[nH]c3ccccc32)CC1` (stereo not drawn), the inhibition was inactive: 3.14%. For `N#CC1(Nc2ccccc2)CCN(CCc2ccccc2)CC1`, the inhibition was inactive: 0.726%. With `O=c1[nH]c2ccccc2n1C1CCN(C(c2ccccc2OC(F)(F)F)c2nnnn2C2CCCC2)CC1` (stereo not drawn) the inhibition was inactive: 4.18%. In the case of `CCN1CCC(Nc2ccc(Cl)cc2)CC1`, the inhibition is reported as inactive: -2.38%. With `CSc1ccc(C(=O)NCC2(N3CCOCC3)CCCCC2)cc1` the inhibition was inactive: 2.42%. With `O=C(NCC1(N2CCCCC2)CCCCC1)c1cccc([N+](=O)[O-])c1` the inhibition was inactive: 1.48%. With `O=C(NCC1(N2CCCCC2)CCCCC1)c1cccc(C(F)(F)F)c1` the inhibition was inactive: 0.454%. In the case of `O=C(NCC1(N2CCOCC2)CCCCC1)c1cc(=O)[nH]c2ccccc12`, the inhibition is reported as inactive: 0.534%. For `COc1cc(C(=O)NCC2(N3CCCCC3)CCCCC2)ccc1OC(F)F`, the inhibition was inactive: -17.1%. For `CCCCn1nnnc1C(c1cccc2ccccc12)N1CCC(n2c(=O)[nH]c3ccccc32)CC1` (stereo not drawn), the inhibition was inactive: 0.586%. With `COc1ccc(NC2CCN(C(=O)OC(C)(C)C)CC2)cc1` the inhibition was inactive: 1.86%. With `CC(C)c1ccc(C(=O)NCC2(N3CCOCC3)CCCCC2)cc1` the inhibition was inactive: 1.25%. `CN1CCN(CCOC(=O)C(O)(c2ccccc2)c2ccccc2)CC1` was tested, and the inhibition was inactive: 1.2%. In the case of `CC(C)c1ccc(NC2CCN(C(=O)OC(C)(C)C)CC2)cc1`, the inhibition is reported as inactive: 0.519%. With `CCCCn1nnnc1C(c1ccccc1OC(F)(F)F)N1CCC(n2c(=O)[nH]c3ccccc32)CC1` (stereo not drawn) the inhibition was inactive: 1.76%. With `CN(C)c1cccc(C(=O)NCC2(N3CCCCC3)CCCCC2)c1` the inhibition was inactive: -0.396%. With `COc1ccc(CN(CCCl)CCCl)cc1Cl` the inhibition was inactive: 0.109%. With `CCC(c1nnnn1C(C)(C)C)N1CCC(n2c(=O)[nH]c3ccccc32)CC1` (stereo not drawn) the inhibition was inactive: 1.42%. `O=C(NCC1(N2CCOCC2)CCCCC1)c1cc(F)c(F)cc1Cl` was tested, and the inhibition was inactive: 0.952%. In the case of `COc1cc(OC)c(C(=O)NCC2(N(C)C)CCCCC2)cc1OC`, the inhibition is reported as inactive: 3.18%. In the case of `CCCCn1nnnc1C(c1ccnc2ccccc12)N1CCC(n2c(=O)[nH]c3ccccc32)CC1` (stereo not drawn), the inhibition is reported as inactive: 3.3%. `O=C(NCC1(N2CCCCC2)CCCCC1)c1cncc(Br)c1` was tested, and the inhibition was inactive: -1.28%. In the case of `CN1CCC(Nc2cccc(F)c2)CC1`, the inhibition is reported as inactive: -1.3%. With `COc1ccc(C(c2nnnn2C2CCCC2)N2CCC(n3c(=O)[nH]c4ccccc43)CC2)cc1` (stereo not drawn) the inhibition was inactive: 1.9%. With `CCCOc1ccc(C(=O)NCC2(N(C)C)CCCCC2)cc1OC` the inhibition was inactive: 1.76%. In the case of `Cc1ccc(C(=O)NCC2(N(C)C)CCCCC2)o1`, the inhibition is reported as inactive: 1.62%.
